What all share (format): biochemical
Experiment [1] concerns the target T1, PI3K γ (Homo sapiens, UniProt P48736).
T1 construct: purchased Sigma
Briefly: PI3K kinase inhibition assay (p110γ). As to the method:
Class I PI3-Ks can be either purchased (p110α/p85α, p110β/p85α, p110δ/p85α from Upstate, and p110γ from Sigma) or expressed as previously described (Knight et al., 2004). IC50 values are measured using either a standard TLC assay for lipid kinase activity (described below) or a high-throughput membrane capture assay. Kinase reactions are performed by preparing a reaction mixture containing kinase, inhibitor (2% DMSO final concentration), buffer (25 mM HEPES, pH 7.4, 10 mM MgCl2), and freshly sonicated phosphatidylinositol (100 μg/ml). Reactions are initiated by the addition of ATP containing 10 μCi of γ-32P-ATP to a final concentration 10 or 100 μM and allowed to proceed for 5 minutes at room temperature. For TLC analysis, reactions are then terminated by the addition of 105 μl 1N HCl followed by 160 μl CHCl3:MeOH (1:1). The biphasic mixture is vortexed, briefly centrifuged, and the organic phase is transferred to a new tube using a gel loading pipette tip precoated with CHCl3. This extract is spotted on TLC plates and developed for 3-4 hours in a 65:35 solution of n-propanol:1M acetic acid. The TLC plates are then dried, exposed to a phosphorimager screen (Storm, Amersham), and quantitated. For each compound, kinase activity is measured at 10-12 inhibitor concentrations representing two-fold dilutions from the highest concentration tested (typically, 200 μM).

Experiment [2] concerns the target T2, mTOR (Homo sapiens, UniProt P42345).
T2 construct: purchased Invitrogen
Briefly: mTOR kinase inhibition assay.

For experiment [3], the target named is T3, PI3K δ (Homo sapiens, UniProt O00329).
T3 construct: purchased Upstate
As to the kind of experiment: PI3K kinase inhibition assay (p110δ/p85α).

The target of experiment [4] is T4, PI3K α (Homo sapiens, UniProt P42336).
T4 construct: purchased Upstate
Briefly: PI3K kinase inhibition assay (p110α/p85α).

This passage reports IC50 results from patent US20140128599A1, “BENZOXAZOLE KINASE INHIBITORS AND METHODS OF USE” (Intellikine LLC La Jolla, priority 2008, published 2014).

A value given as a limit tells only on which side of the number the result lay.

On to `CC(=O)Nc1nc2ccc(-c3nn(C(C)C)c4ncnc(N)c34)cc2o1` [compound 3], for which the 50% inhibitory concentration (IC50) in experiment [1], in experiment [2] and in experiment [3] was under 10 µM throughout.

In the case of `Nc1nc2cc(-c3nn(C4CCC(N5CCOCC5)CC4)c4ncnc(N)c34)ccc2o1` (stereo not drawn) [compound 6], the IC50 in experiment [1] and in experiment [4] was under 10 µM throughout.

As for `Nc1nc2cc(-c3cn(C4CCOCC4)c4ncnc(N)c34)ccc2o1` [compound 9], the concentration for half-maximal inhibition (IC50) in experiment [1] and in experiment [3] was under 1 µM each time.

As for `CC(C)n1nc(-c2ccc3c(NC4CC4)noc3c2)c2c(N)ncnc21` [compound 14], the 50% inhibitory concentration (IC50) in experiment [1] is under 1 µM.

In experiment [1], `CC(C)n1nc(-c2ccc3onc(NC4CC4)c3c2)c2c(N)ncnc21` [compound 16] had a 50% inhibitory concentration (IC50) of under 10 µM.

In general, IC50 refers to the point on the concentration scale where inhibition reaches its midpoint. Read a high IC50 as lower potency.
